BindingDB's records for 19269822 (Universita Degli Studi Di Firenze, 2009)

Protein sequences, listed by entry. Tags and fused reporters are not part of them. Lines headed by an entry give the natural chain unless they say otherwise; changes in a name come on top. Residues count along the entry.
UniProt P22748, 19-284 limits assumed: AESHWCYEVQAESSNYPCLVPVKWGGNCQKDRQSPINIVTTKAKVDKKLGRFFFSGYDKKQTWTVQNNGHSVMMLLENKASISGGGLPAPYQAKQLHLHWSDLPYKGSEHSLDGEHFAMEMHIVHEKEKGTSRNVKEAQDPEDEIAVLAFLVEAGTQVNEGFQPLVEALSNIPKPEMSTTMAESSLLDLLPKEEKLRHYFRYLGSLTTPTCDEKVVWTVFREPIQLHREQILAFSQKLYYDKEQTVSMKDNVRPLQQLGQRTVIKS
UniProt P43166: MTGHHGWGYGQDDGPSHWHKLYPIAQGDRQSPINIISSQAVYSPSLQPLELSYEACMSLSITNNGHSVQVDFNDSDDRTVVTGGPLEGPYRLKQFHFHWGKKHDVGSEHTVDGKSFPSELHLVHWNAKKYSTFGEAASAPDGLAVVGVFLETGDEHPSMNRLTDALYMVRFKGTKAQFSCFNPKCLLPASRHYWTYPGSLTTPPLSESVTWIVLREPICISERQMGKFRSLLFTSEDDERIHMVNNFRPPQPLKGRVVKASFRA
UniProt Q9D6N1: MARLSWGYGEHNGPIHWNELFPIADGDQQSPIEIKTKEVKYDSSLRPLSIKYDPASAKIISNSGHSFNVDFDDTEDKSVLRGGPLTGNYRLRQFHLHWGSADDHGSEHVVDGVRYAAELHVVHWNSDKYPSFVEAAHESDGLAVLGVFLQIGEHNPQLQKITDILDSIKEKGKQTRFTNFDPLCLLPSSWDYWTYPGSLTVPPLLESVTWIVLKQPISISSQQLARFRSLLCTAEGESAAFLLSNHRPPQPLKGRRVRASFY

What was measured:
Carbonic anhydrase 4 = Carbonic anhydrase 4 (Homo sapiens, UniProt P22748); assay: Inhibition of human recombinant carbonic anhydrase 4-catalyzed CO2 hydration by stopped flow assay
Carbonic anhydrase 7 = Carbonic anhydrase 7 (Homo sapiens, UniProt P43166); assay: Inhibition of human recombinant carbonic anhydrase 7-catalyzed CO2 hydration by stopped flow assay
Carbonic anhydrase 13 = Carbonic anhydrase 13 (Mus musculus, UniProt Q9D6N1); assay: Inhibition of mouse recombinant carbonic anhydrase 13-catalyzed CO2 hydration by stopped flow assay

SMILES	Ki (Carbonic anhydrase 4) [µM]	Ki (Carbonic anhydrase 7) [µM]	Ki (Carbonic anhydrase 13) [µM]
[O]=[V]([OH])([OH])[O][V](=[O])([OH])[OH]	290	600	390
O=S(=O)(O)F	39700	1310	61800
